Experimental data published in paper PMC9837035 (Nature Communications, 2023).
“And” between values parts separate entries of the source, which are not always exact repeats. Equal values may be shown once.

Assays:
G9a SET domain = target: T1, G9a SET domain (Homo sapiens, UniProt Q96KQ7); test: Surface plasmon resonance (SPR); assay type: binding; settings: single run
T1 construct: the human G9a SET domain (residues 913–1193) was synthesized using the E. coli cell-free synthesis method; made in house; host or cells: E. coli cell-free synthesis
T1 sequence (Q96KQ7 913-1193): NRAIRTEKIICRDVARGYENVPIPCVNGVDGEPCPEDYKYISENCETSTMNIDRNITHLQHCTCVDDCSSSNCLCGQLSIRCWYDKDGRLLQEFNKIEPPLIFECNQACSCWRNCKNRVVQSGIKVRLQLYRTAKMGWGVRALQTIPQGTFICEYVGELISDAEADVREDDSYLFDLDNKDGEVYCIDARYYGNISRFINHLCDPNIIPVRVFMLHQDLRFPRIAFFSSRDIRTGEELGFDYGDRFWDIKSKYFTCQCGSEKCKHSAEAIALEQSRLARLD
Description: For crystal structure analysis, the human G9a SET domain (residues 913–1193) was synthesized using the E. coli cell-free synthesis method[48],[49] and purified in the same manner as described previously, except that the final size-exclusion column chromatography using HiLoad Superdex 200 16/60 (GE Healthcare) was equilibrated with 20 mM Tris-HCl buffer (pH 8.0) containing 400 mM NaCl. […] Crystals were grown by the hanging drop method at 293 K, where the sample solution was mixed with an equal volume of a reservoir solution containing 100 mM Bis-Tris propane (pH 7.4), 200 mM sodium formate, 10% ethylene glycol, and 25% PEG 3350. The harvested crystals were coated with Paratone-N oil (Hampton Research) before being flash-cooled in liquid nitrogen. Diffraction data were collected at the X06DA beamline of the Swiss Light Source, Paul Scherrer Institut (Villigen, Switzerland), and were processed and scaled with XDS[51], AIMLESS[52], and other CCP4 programs. The structure of G9a with UNC0638 (PDB ID: 3RJW)[23] was used for the initial phase determination by the molecular replacement method with Phaser[53]. The topology and parameter file for the inhibitor was generated with eLBOW[54] from SMILES strings. Structure refinement was carried out with Phenix[55] and manual model building using COOT[56]. Crystallographic statistics are summarized in Supplementary Table 3.
SPR was performed using a Biacore T200 (Cytiva) and Series S Sensorchip SA (Cytiva, BR100531) at the temperature of 25 °C. A solution of PBS, 0.005% TWEEN20 (Sigma, P9416), 0.5 mM TCEP (Nacalai Tesque, 06342-21), and 2% DMSO (Sigma, 276855) was filtered with a 0.22-μm filter and used as the running buffer. Kinetic measurements were carried out at a flow rate of 30 μL/min, and the association and dissociation phases were monitored for 120 s and 120–300 s, respectively. The G9a SET domain was biotinylated by using NHS-PEG4-Biotin (Thermo, 39259), and captured to flow cells 2, 3, and 4 with immobilization levels of ~2300 RU. No specific treatment was applied to the reference surface (flow cell 1). To prevent oxidation of the immobilized protein, a solution containing 1 μM ZnCl2 and 5 mM TCEP was injected at a flow rate of 10 μL/min for 60 s before each set of kinetic measurements. The extra wash command was executed after each measurement cycle with 50% DMSO aqueous solution. To correct for bulk responses, solvent correction was performed once after all kinetics runs by using running buffer containing 1–3% DMSO. The sensorgrams obtained from the three flow cells were analyzed individually by Biacore T200 Evaluation Software (Cytiva). The dissociation constant (KD) and binding kinetic parameters were calculated by a curve fit to a built-in 1:1 binding model.

[1] = tested on: BGLT3-knockdown HUDEP-2 cells; test: RT-qPCR of BGLT3, β- and γ-globin in BGLT3-knockdown HUDEP-2 cells; assay type: cell-based, human; settings: 4 days
Description: Total cellular RNA was prepared using the Tissue Total RNA Mini Kit (FAVORGEN), and cDNA was synthesized using ReverTra Ace Master Mix (TOYOBO). Expression of target genes was analyzed using THUNDERBIRD SYBR qPCR Mix (TOYOBO) on a CFX Connect Real Time System (Bio-Rad). The qPCR data were acquired on CFX Maestro (Bio-Rad). Primers are listed in Supplementary Table 10. GAPDH was used as a reference. Primers were purchased from INTEGRATED DNA TECHNOLOGIES or FASMAC.
Retroviral infection was used as previously described to establish cell lines stably expressing BGLT3 and transfected with the pCX4-pur vector, as well as knockdown cell lines transfected with the pSUPER vector[58]. Briefly, retroviruses were produced by transfecting PLAT-E cells with pCX4-pur-BGLT3 or pSUPER-ctrl, pSUPER-BGLT3, or pSUPER-G9a using 5 μg/mL polyethylenimine MAX (PEI MAX, Polysciences). Two days after transfection, the culture supernatant was collected and filtered through a 0.45-μm filter (Millipore) and used for infection with 8 μg/mL polybrene (Sigma). Forty-eight hours after infection, the infected cells were selected with 0.2 μg/mL puromycin (InvivoGen). The clonal puromycin-resistant cells were established via limiting dilution. The desired clones were confirmed by western blotting or qPCR.

## Cc1c(C(=O)NC(CCC2CC2)C(=O)Nc2ccc(C#N)cc2)[nH]c2c1C(=O)CC(C)(C)C2 (centres unmarked) [RK-701]
G9a SET domain
  Koff: 0.012 s⁻¹
  Kon: 16000 M⁻¹ s⁻¹
  koff: 0.013 s⁻¹
  kon: 17000 M⁻¹ s⁻¹
[1]; shBGLT3#1 HUDEP-2, 1 μM
  Relative expression of BGLT3: 0.1913 and 0.269 and 0.3493
[1]; shBGLT3#2 HUDEP-2, 1 μM
  Relative expression of BGLT3: 0.5184 and 0.3225 and 0.3815
  Relative expression of γ-globin: 0.8451 and 0.5898 and 0.9327
[1]; shBGLT3#3 HUDEP-2, 1 μM
  Relative expression of BGLT3: 0.7043 and 0.5474 and 0.4249
  Relative expression of γ-globin: 1.694 and 1.096 and 1.087
[1]; shctrl HUDEP-2, 1 μM
  Relative expression of BGLT3: 4.411 and 3.537 and 2.353
  Relative expression of β-globin: 0.7355 and 1.006 and 0.9971
